Compound activity deposited in PubChem BioAssay by Broad Institute.
UUG fidelity: alters start codon recognition fidelity in yeast. S. cerevisiae UUG-firefly luciferase reporter, luminescence/redox ratio. activity score, % at 18.7 µM. 0.13% of 350,000 active. AID 602363;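 active = replicate mean at a twofold rise or more, about +100% in these data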;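 also: firefly luciferase made from a UUG start codon reports start codon fidelity; reporter light over untreated wells divided by growth signal over untreated wells; some hits fall short of that in this replicate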
PglD DTNB: blocks C. jejuni PglD acetyltransferase activity | AID 602405 | inhibition, % at 12.5 µM | purified PglD enzyme, DTNB colorimetric CoA detection | 0.098% of 360,000 active; in the data active = inhibition above about 16%, passing the limit was not always enough; inconclusive = no clear call, values can overlap the other calls
E-selectin induc: induces E-selectin expression in human endothelial cells | AID 686992 | activation, % at 7.58 µM | 0.37% of 260,000 active | HUVEC E-selectin immunofluorescence imaging; normalized: neutral wells 0, TNF-alpha wells 100 | P16581;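 active = mean E-selectin-positive cell signal at least 10% of the positive control, reached in at least 60% of replicates, without over 20% cell loss; inconclusive = no rule given, readout overlaps actives, possibly toxicity-flagged; inactive = the rest, including those meeting only one limit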
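System: HUVEC, human umbilical vein endothelial cells; quantity: 3,000 cells/well; buffer or medium: EGM-2 medium, gelatin-coated wells; dosing: single-point compound dose; detection: immunofluorescence imaging; evaluation: % PE-positive cells; benchmarks: TNF-alpha, DMSO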
C2C12 statin: suppressors of simvastatin-induced myotoxicity in C2C12 myotubes; ATP luminescence, 48 h; scaled: DMSO 0, geranylgeraniol control 100; rescue of ATP level, % at 7.49 µM; 0.78% of 330,000 active;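 active = mean ATP rescue above about 67%, or every replicate alone reaching that limit, limit read from the data, passing the limit was not always enough; inconclusive = no clear call, values can overlap the other calls; inactive = mean under the limit and some replicate under it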;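 note: myotubes were challenged with 10 µM simvastatin during compound exposure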
PGC1a acetyl inh: PGC1a acetylation modulation, inhibitor mode; 0.17% of 350,000 active; inhibition, % at 15.6 µM; AID 651687; U2OS PGC1a acetylation, AlphaScreen anti-acetyl-lysine; with virally co-expressed GCN5 acetyltransferase;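 active = every replicate shows inhibition of at least 40%; inconclusive = mean inhibition at least 40% but some replicate below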
esBAF inh: inhibitors of esBAF chromatin remodeling in mouse ES cells | Bmi1-luciferase knock-in reporter, 24 h; 100% = twice the neutral-well signal | reporter increase, % at 12.5 µM | 2% of 350,000 active; in the data active = activation above about 40%; inconclusive = no clear call, values can overlap the other calls;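 note: a rise in the Bmi1 reporter signal indicates esBAF inhibition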
Of the large screens only hits and unclear results are named; the others gave an inactive call. Rows were chosen to be rich in hits. Some 2.8% of all compounds tested hit in one or more screens of this group.

C[C@@H]1CN([C@H](C)CO)C(=O)c2cccc(NC(=O)Nc3ccccc3)c2O[C@@H]1CN(C)S(=O)(=O)c1ccccc1	E-selectin induc 255, C2C12 statin 65
C[C@@H]1CCCCO[C@@H](CN(C)S(=O)(=O)c2cn(C)cn2)[C@H](C)CN([C@H](C)CO)C(=O)c2cc(NC(=O)Cc3ccccc3)ccc2O1	none (no result: C2C12 statin)
C[C@H]1CN([C@@H](C)CO)C(=O)c2cccc(NC(=O)Nc3ccccc3)c2O[C@H]1CN(C)C	PglD DTNB 19
Cc1cc2c3c(c1)C1(SCC(=O)N1c1ccc(F)cc1)C(=O)N3C(C)(C)CC2C (stereo not drawn)	C2C12 statin 110 (no result: E-selectin induc)
Cc1cccnc1-n1c(CCN2C(=O)c3ccccc3C2=O)nc2ccccc2c1=O	C2C12 statin 72 (no result: E-selectin induc)
COc1ccc(/C=N/n2c(C)nc3ccccc3c2=O)cc1	E-selectin induc 31, esBAF inh inconclusive
Cc1nc2ccccc2c(=O)n1/N=C/c1ccc(O)cc1	none (no result: E-selectin induc)
O=C(Nc1ccc2c(c1)OCO2)c1cccc(F)c1	none (no result: E-selectin induc, C2C12 statin, esBAF inh)
O=C(Nc1cccc(F)c1)Nc1ccc2c(c1)OCO2	esBAF inh 50 (no result: PGC1a acetyl inh)
Cc1csc(NC(=O)Nc2cccc(Cl)c2)n1	esBAF inh 88 (no result: E-selectin induc)
O=C(Nc1cccc(Cl)c1)Nc1nc(-c2ccccc2)cs1	none (no result: UUG fidelity, PglD DTNB, C2C12 statin, esBAF inh)
O=C(Nc1cccc(F)c1)Nc1cccc(Cl)c1	esBAF inh 55 (no result: E-selectin induc, PGC1a acetyl inh)
CCC[C@H]1COCCS(=O)(=O)N1Cc1ccccc1F	C2C12 statin 79
O=C(CCCc1cccs1)Nc1nc2c(s1)CCCC2	esBAF inh 53 (no result: E-selectin induc)
CC1CCc2nc(NC(=O)Cc3cccs3)sc2C1 (stereo not drawn)	esBAF inh 58 (no result: E-selectin induc, C2C12 statin)
Cc1csc(NC(=O)CCCc2cccs2)n1	esBAF inh inconclusive
CC1CCCC(C)N1CCCNC(=O)c1ccc2nc(N3CCOCC3)sc2c1 (stereo not drawn)	none
CCCN1CCN(CCCNC(=O)c2ccc3nc(N4CCCCC4)sc3c2)CC1	esBAF inh 77
CC1CC(C)CN(CCCNC(=O)c2ccc3nc(N4CCCCC4)sc3c2)C1 (stereo not drawn)	esBAF inh 55
CCCCC(=O)N1CCN(c2nc3ccc(Cl)cc3s2)CC1	esBAF inh 50 (no result: E-selectin induc)
CCCNC(=O)Nc1ccc2c(c1)OC[C@@H](C)N(C(=O)C1CCCCC1)C[C@@H](C)[C@@H](OC)CN(C)C2=O	none (no result: PGC1a acetyl inh)
CCCNC(=O)c1ccc(N2CCC3(CC2)CC(c2cccc(Br)c2)=NO3)c(NC(=O)c2cccc(OC)c2)c1	C2C12 statin 142
Cc1noc(C)c1NC(=O)N(C)C[C@H]1OCCCC[C@H](C)Oc2ccc(NC(=O)NC3CCCCC3)cc2C(=O)N([C@@H](C)CO)C[C@@H]1C	none (no result: E-selectin induc, C2C12 statin)
C[C@@H]1CN([C@H](C)CO)C(=O)Cc2cc(NC(=O)CCCCCC(=O)Nc3ccccc3N)ccc2O[C@H]1CN(C)CC1CCCCC1	C2C12 statin 88
C[C@H]1CN([C@@H](C)CO)C(=O)Cc2cc(NC(=O)CCCCCC(=O)Nc3ccccc3N)ccc2O[C@@H]1CN(C)CC1CCCCC1	C2C12 statin inconclusive
C[C@H]1CN([C@@H](C)CO)C(=O)Cc2cc(NC(=O)CCCCCC(=O)Nc3ccccc3N)ccc2O[C@H]1CN(C)C	none
C[C@@H]1CN([C@@H](C)CO)C(=O)Cc2cc(NC(=O)CCCCCC(=O)Nc3ccccc3N)ccc2O[C@H]1CN(C)C	PglD DTNB 21
C[C@H](CO)N1C[C@H](C)[C@@H](CN(C)S(C)(=O)=O)Oc2ccc(NC(=O)CCCCCC(=O)Nc3ccccc3N)cc2CC1=O	E-selectin induc 36
COc1cccc(C#Cc2cnc3c(c2)C(=O)N([C@@H](C)CO)C[C@@H](C)[C@H](CN(C)C(C)=O)O3)c1	none
O=c1[nH]c(/C=C/c2cccc3ccccc23)nc2ccccc12	none (no result: UUG fidelity, PglD DTNB, C2C12 statin, PGC1a acetyl inh, esBAF inh)
O=c1[nH]c(/C=C/c2ccccn2)nc2ccccc12	esBAF inh 44
Cc1ccc(N/C=C(/C#N)c2ccsc2)cc1C	esBAF inh 62 (no result: E-selectin induc, PGC1a acetyl inh)
Cc1ccc(C(=O)/C=C\Nc2ccc(C)c(C)c2)cc1	none (no result: UUG fidelity, PglD DTNB, C2C12 statin, PGC1a acetyl inh, esBAF inh)
C[C@H]1CN([C@@H](C)CO)S(=O)(=O)c2ccc(C#Cc3ccncc3)cc2O[C@H]1CN(C)C(=O)C1CCOCC1	none
